Earlier results, collected in US9814778B2, “Ionically crosslinked polyelectrolytes as underwater adhesives as controlled release vehicles” (The University of Toledo, priority 2014, dated 2017).

Conditions: in solution; cited from earlier work

Question: What does the source list for pyrophosphate [PPi]?
Answer: pKa,2: 2.3; pKa,3: 6.6; pKa,4: 9.3
